Apparent affinities of Ab-91 variants for a coronavirus HR2 peptide

Antigen: PDVDLGDISGINAS, a 14-residue peptide of the SARS-CoV-2 spike HR2 region.

Parent: Ab-91, a human scFv built as VL, a 15-residue (Gly4Ser)3 linker, VH. Only the CDRs of the heavy chain vary.
VL: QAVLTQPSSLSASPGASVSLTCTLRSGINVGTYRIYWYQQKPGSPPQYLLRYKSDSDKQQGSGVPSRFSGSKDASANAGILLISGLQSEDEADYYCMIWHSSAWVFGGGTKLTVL
VH: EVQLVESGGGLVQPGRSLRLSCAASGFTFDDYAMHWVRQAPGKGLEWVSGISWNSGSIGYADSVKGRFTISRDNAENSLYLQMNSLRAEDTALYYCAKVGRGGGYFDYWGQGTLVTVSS

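AAYL51 was designed without a model: most single CDR substitutions and a random sample of double and triple ones. AlphaSeq pools MATa yeast showing the antibodies with MATalpha yeast showing the peptide. Pairs that bind mate more often; barcode pairs of the diploids are counted by sequencing. Each replicate has its own calibration line, from reference interactions of the BCL2 family. The assay was run in three technical replicates.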

The parent's heavy chain CDRs are GFTFDDYAMH, GISWNSGSIGYADSVK, VGRGGGYFDY; each variant's own CDRs replace them letter for letter. All variants listed here change A33 of the VH, counted from its first residue. Kd is apparent (estimated from mating counts) and averaged on the log scale over replicates with a signal. Smaller is tighter. "no signal" marks a missing value. The strain was present, yet no cells mated with the target were sequenced in any replicate, which points to weak or no binding. In this assay the parent's reference entry averaged 72 nM; its copy inside this library read 7.5 nM.

- GFTFDDYKMH | GISWNSMSIGYADYVK | VGRGGGYFDY: 44 µM (1 of 3 replicates; controls 4 of 9)
- GFTFSDYPMH | GISWNSGSIGYADSVK | VGRGGGYFDM: 1.3 mM (1 of 3 replicates; controls 4 of 9)
- GFTFIDYDMH | GCSWNSGSIGYADSVK | VGRGGGYFDY: no signal (0 of 3 replicates; controls 2 of 9)
- GFTFDDYNMH | GISWNSGSIGYADSVK | VGRGGGYFDY: 2.3 µM (1 of 3 replicates; controls 0 of 9)
- GFTFDDYHMH | GISWNSGSIGYADSVK | VGRGGGYFDY: no signal (0 of 3 replicates; controls 2 of 9)
- GFTFDDYSMH | GISWNSGSCGYADSVK | VGRGGGYFDY: 5.5 nM (3 of 3 replicates; controls 2 of 9)
- GFTFDDYDMH | GISWNSGSIGYADSVK | VGRGGGYFDY: 62 µM (2 of 3 replicates; controls 5 of 9)
- GTTFDDYMMH | GISWLSGSIGYADSVK | VGRGGGYFDY: 4.7 µM (1 of 3 replicates; controls 0 of 9)
- GFTFDDYVMH | GGSWNSGSIGYADSVF | VGRGGGYFDY: no signal (0 of 3 replicates; controls 0 of 9)
- GFTFDDYPMH | GISWWSGSIGYADSVQ | VGRGGGYFDY: no signal (0 of 3 replicates; controls 0 of 9)
- GFTFDDYIQH | GISWNSGSIGYADSVK | SGRGGGYFDY: 170 µM (2 of 3 replicates; controls 1 of 9)
- GFTFDDYDMH | GISWNSGSIGYADSVK | VERGGGPFDY: 100 µM (2 of 3 replicates; controls 1 of 9)
- GFTFDDYPMH | GISWNSGSIGYADSDN | VGRGGGYFDY: no signal (0 of 3 replicates; controls 0 of 9)
- GFTFDDYNMH | GISWNSGSIGYADSVK | VARSGGYFDY: 4.2 µM (1 of 3 replicates; controls 2 of 9)
- GFTFDDYQMH | GISWNSGSIGYLDSVK | VGRFGGYFDY: 14 µM (1 of 3 replicates; controls 2 of 9)
- GFTFDDYWMH | GISWKSGSIGYADSVK | VGRFGGYFDY: no signal (0 of 3 replicates; controls 1 of 9)
- NFTFDDYLMH | GISWNSGSIGYADSVK | VGRGGGYFDY: 22 µM (2 of 3 replicates; controls 3 of 9)
- GFTFDDYHMH | GHQWNSGSIGYADSVK | VGRGGGYFDY: no signal (0 of 3 replicates; controls 0 of 9)
- GFTFDDYRMH | GISWNSGSIGYPDSVK | VGRGGGYFDY: 1.7 µM (2 of 3 replicates; controls 1 of 9)
- GFTFDDYPHH | GISWNSGSIGYADSVK | VGRGIGYFDY: 1.4 µM (1 of 3 replicates; controls 3 of 9)
- GFTFDDYFMH | GISWNSGSIQYADSVK | VGRYGGYFDY: no signal (0 of 3 replicates; controls 0 of 9)
- GFTFDDYCMH | GISWNSGSIGYADSVK | VGRGSGYFDY: no signal (0 of 3 replicates; controls 2 of 9)
- GFTSDDYTMH | GISWNSGSIGYADSVA | VGRGGGYFDY: no signal (0 of 3 replicates; controls 0 of 9)
- GFTFQDYNMH | GISWNSGGIGYADSVK | VGRGGGYFDY: no signal (0 of 3 replicates; controls 0 of 9)
- GFTFDDYNMH | GIAWNSGSIGYADSVK | VGRGGGYFDY: no signal (0 of 3 replicates; controls 1 of 9)
- GFTFDDYWMH | GISWNSGSCGYADSVK | VGPGGGYFDY: no signal (0 of 3 replicates; controls 1 of 9)
- GITFDDYPMH | GISWNSGSIGYADSVK | VGRGGGYFDT: 610 nM (3 of 3 replicates; controls 7 of 9)
- GFTFDDYMMH | GISWNSGSIGYADSVC | VGRGGGYQDY: no signal (0 of 3 replicates; controls 1 of 9)
- GFTFDDYVMH | CISWNSGSIGYAESVK | VGRGGGYFDY: no signal (0 of 3 replicates; controls 1 of 9)
- GFTFDDHEMH | GISWNSGSIGYADSVK | VGRGGGYRDY: no signal (0 of 3 replicates; controls 0 of 9)
- GFTFDDYTMH | GISWNSGSIGYADSVK | VGRGGGYMDY: no signal (0 of 3 replicates; controls 2 of 9)
- GFTFDDYKMH | GIAWNSGIIGYADSVK | VGRGGGYFDY: 130 µM (3 of 3 replicates; controls 4 of 9)
- GFTFDDYIMH | GISWNSGSIDYADSVK | VGRGGQYFDY: 140 µM (1 of 3 replicates; controls 3 of 9)
- GFTFDDYPMH | GISWNSGQIGYADSVK | VGRGGGYFDY: no signal (0 of 3 replicates; controls 2 of 9)
- GFTFDDYTMH | GISWNSGSIGYAYSVK | VMRGGGYFDY: no signal (0 of 3 replicates; controls 0 of 9)
- GFTFDDYCMH | GISWNSGSIGYADWVK | VGREGGYFDY: no signal (0 of 3 replicates; controls 0 of 9)
- GFTFDDYVMH | GISWNSYSIGEADSVK | VGRGGGYFDY: no signal (0 of 3 replicates; controls 0 of 9)
- GFTFDDYGMH | GISWNSGSIGYADSVV | VGRRGGYFDY: 1.2 µM (3 of 3 replicates; controls 4 of 9)
- GFIPDDYIMH | GISWNSGSIGYADSVK | VGRGGGYFDY: no signal (0 of 3 replicates; controls 0 of 9)
- GFTFDIYHWH | GISWNSGSIGYADSVK | VGRGGGYFDY: no signal (0 of 3 replicates; controls 0 of 9)
- GFTFDDYMMH | GISWNSGSIGYADSVK | VFRGGGYFDY: no signal (0 of 3 replicates; controls 1 of 9)
- GFTFDDYLMH | GISWNIGSIGYADSVK | VGRGPGYFDY: no signal (0 of 3 replicates; controls 0 of 9)
- GPTFDDYSMH | GISWNSGSIGYADSVK | VGRGGGYFDY: 280 nM (3 of 3 replicates; controls 2 of 9)

Top 5 of the variants detected in all replicates, tightest first:

- GFTFDDYSMH | GISWNSGSCGYADSVK | VGRGGGYFDY: 5.5 nM (3 of 3 replicates; controls 2 of 9)
- GPTFDDYSMH | GISWNSGSIGYADSVK | VGRGGGYFDY: 280 nM (3 of 3 replicates; controls 2 of 9)
- GITFDDYPMH | GISWNSGSIGYADSVK | VGRGGGYFDT: 610 nM (3 of 3 replicates; controls 7 of 9)
- GFTFDDYGMH | GISWNSGSIGYADSVV | VGRRGGYFDY: 1.2 µM (3 of 3 replicates; controls 4 of 9)
- GFTFDDYKMH | GIAWNSGIIGYADSVK | VGRGGGYFDY: 130 µM (3 of 3 replicates; controls 4 of 9)

Nonspecific signal, from three strains lacking the peptide, appeared in 21% of pairings of library AAYL51, centred on 34 µM (5% of these signals below 1.8 µM); values are not corrected for it. Also given: how often the same scFv was detected with the empty control strains.

Values reported by Engelhart et al. 2022, doi:10.1038/s41597-022-01779-4 (FLAb copy).